Experimental data published in patent US20030041357A1, “Herbicide resistant plants” (priority 1996, published 2003).

Test system: pDV6 plants expressing both glyphosate resistance genes and GST
Assay: Pre-em/post-em herbicide treatment of DV6 plants (Table 1)
Assay type: in vivo, Tobacco
Details: pDV6 #71

In the case of `O=c1nn[nH][nH]1`, the “% Phytotoxicity (mean, 21 DAT)” value (pre-em rate 200, then post-em Glyphosate 800 g/ha) is reported as 0% and the “% Phytotoxicity (mean, 21 DAT)” value (pre-em rate 200, no post-em treatment) is reported as 0%.
